# Assay results taken from US20060264603A1.
# How the values were obtained:
# Trypsin [1] = assay: display-phage binding to protease target; trypsin, two washes
# [2] = molecular target: human plasma Kallikrein (Calbiochem, San Diego, Calif., # 420302) (human) (UniProt P03952); assay: display-phage binding to kallikrein beads; pfu eluted / input (10^10 pfu)
# [3] = molecular target: human plasma Kallikrein (Calbiochem, San Diego, Calif., # 420302) (human) (UniProt P03952); assay: display-phage binding to kallikrein beads; fraction bound relative to parental
# Plasmin = assay: display-phage binding to protease target
# [4] = molecular target: human plasma Kallikrein (Calbiochem, San Diego, Calif., # 420302) (human) (UniProt P03952); assay: display-phage binding to protease target
# Trypsin [5] = assay: display-phage binding to protease target
# Thrombin = assay: display-phage binding to protease target
substance,measurement,setting,value
bovine pancreatic trypsin inhibitor (BPTI) (from UniProt P00974 36-93),relative binding (BPTI relative to LACI) (fold relative to LACI phage display),Trypsin [1],0.8
same,Fraction Bound (fraction of input pfu),[2],2.5e-06
same,Relative Binding (fold relative to LACI(K1) display-phage),[3],6
same,relative binding (BPTI relative to LACI) (fold relative to LACI phage display),Plasmin,88
same,relative binding (BPTI relative to LACI) (fold relative to LACI phage display),[4],1.7
same,relative binding (BPTI relative to LACI) (fold relative to LACI phage display),Trypsin [5],0.3
same,relative binding (BPTI relative to LACI) (fold relative to LACI phage display),Thrombin,1.1
